Source: US20110319464A1, “METHODS FOR TREATING BENIGN PROSTATIC HYPERPLASIA” (KISSEI PHARMACEUTICAL CO., LTD., priority 2007, published 2011)
Where “and” joins values, the source holds several entries; their conditions need not be identical. Identical values can stand only once.

How the values were obtained:
[1] = Pharmacokinetic Study on Silodosin (Study 98364); assay type: in vivo, human; conditions: 4 mg once daily 7 days, individual subjects
From the text: The remaining two subjects in each dosing cohort received placebo.

[2] = Pharmacokinetic Study on Silodosin (Study US011), once daily for seven days, fed state

## C[C@H](Cc1cc2c(c(C(N)=O)c1)N(CCCO)CC2)NCCOc1ccccc1OCC(F)(F)F [Silodosin]
[1]; Day 7, 0 h (t0)
  Blood Plasma Concentrations: 4.64 ng/mL and 6.03 ng/mL and 6.36 ng/mL and 2.77 ng/mL and 3.35 ng/mL
[1]; Day 7, 0.25 h
  Blood Plasma Concentrations: 4.89 ng/mL and 5.28 ng/mL and 7.06 ng/mL and 2.76 ng/mL and 3.35 ng/mL
[1]; Day 7, 0.5 h
  Blood Plasma Concentrations: 4.51 ng/mL and 5.10 ng/mL and 11.82 ng/mL and 3.49 ng/mL and 2.93 ng/mL
[1]; Day 7, 1 h
  Blood Plasma Concentrations: 15.95 ng/mL and 29.55 ng/mL and 31.27 ng/mL and 13.96 ng/mL and 15.35 ng/mL
[1]; Day 7, 2 h
  Blood Plasma Concentrations: 37.80 ng/mL and 39.99 ng/mL and 20.57 ng/mL and 23.58 ng/mL
[1]; Day 7, 3 h
  Blood Plasma Concentrations: 16.81 ng/mL and 24.30 ng/mL and 12.39 ng/mL and 14.33 ng/mL
[1]; Day 7, 4 h
  Blood Plasma Concentrations: 13.36 ng/mL and 15.36 ng/mL and 8.36 ng/mL and 11.22 ng/mL
[1]; Day 7, 5 h
  Blood Plasma Concentrations: 11.12 ng/mL and 12.59 ng/mL and 7.29 ng/mL and 7.42 ng/mL
[1]; Day 7, 6 h
  Blood Plasma Concentrations: 8.57 ng/mL and 8.60 ng/mL and 4.72 ng/mL and 5.52 ng/mL
[1]; Day 7, 8 h
  Blood Plasma Concentrations: 6.58 ng/mL and 6.13 ng/mL and 4.58 ng/mL and 3.83 ng/mL
[1]; Day 7, 12 h
  Blood Plasma Concentrations: 4.54 ng/mL and 4.46 ng/mL and 4.01 ng/mL and 2.09 ng/mL and 1.44 ng/mL
[1]; Day 7, 24 h
  Blood Plasma Concentrations: 2.02 ng/mL and 3.38 ng/mL and 2.98 ng/mL and 1.15 ng/mL and 0.50 ng/mL
[2]; 4 mg once daily 7 days, time 0.0 h (Day 1), individual subjects
  Blood Plasma Concentrations: 0.00 ng/mL
[2]; 4 mg once daily 7 days, time 0.0 h (Day 1), mean
  Blood Plasma Concentrations: 0.00 ng/mL
[2]; 4 mg once daily 7 days, time 0.3 h, individual subjects
  Blood Plasma Concentrations: 0.00 ng/mL
[2]; 4 mg once daily 7 days, time 0.3 h, mean
  Blood Plasma Concentrations: 0.00 ng/mL
[2]; 4 mg once daily 7 days, time 0.5 h, individual subjects
  Blood Plasma Concentrations: 0.00 ng/ml (4×) and 1.48 ng/ml and 1.43 ng/ml and 0.51 ng/ml and 5.48 ng/ml and 0.59 ng/ml
[2]; 4 mg once daily 7 days, time 0.5 h, mean
  Blood Plasma Concentrations: 1.05 ng/mL
[2]; 4 mg once daily 7 days, time 1.0 h, individual subjects
  Blood Plasma Concentrations: 2.09 ng/mL and 23.99 ng/mL and 12.07 ng/mL and 15.32 ng/mL and 5.75 ng/mL and 21.73 ng/mL and 3.77 ng/mL and 0.52 ng/mL and 3.16 ng/mL
[2]; 4 mg once daily 7 days, time 1.0 h, mean
  Blood Plasma Concentrations: 9.82 ng/mL
[2]; 4 mg once daily 7 days, time 1.5 h, individual subjects
  Blood Plasma Concentrations: 21.09 ng/mL and 27.06 ng/mL and 12.49 ng/mL and 31.22 ng/mL and 11.36 ng/mL and 33.78 ng/mL and 14.50 ng/mL and 3.65 ng/mL and 6.54 ng/mL
[2]; 4 mg once daily 7 days, time 1.5 h, mean
  Blood Plasma Concentrations: 17.97 ng/mL
[2]; 4 mg once daily 7 days, time 2.0 h, individual subjects
  Blood Plasma Concentrations: 39.89 ng/mL and 20.22 ng/mL and 12.40 ng/mL and 39.39 ng/mL and 13.54 ng/mL and 40.29 ng/mL and 16.22 ng/mL and 11.16 ng/mL and 31.67 ng/mL
[2]; 4 mg once daily 7 days, time 2.0 h, mean
  Blood Plasma Concentrations: 24.98 ng/mL
[2]; 4 mg once daily 7 days, time 3.0 h, individual subjects
  Blood Plasma Concentrations: 21.82 ng/mL and 12.50 ng/mL and 11.54 ng/mL and 35.57 ng/mL and 13.29 ng/mL and 30.14 ng/mL and 19.72 ng/mL and 20.28 ng/mL and 35.31 ng/mL
[2]; 4 mg once daily 7 days, time 3.0 h, mean
  Blood Plasma Concentrations: 22.24 ng/mL
[2]; 4 mg once daily 7 days, time 4.0 h, individual subjects
  Blood Plasma Concentrations: 20.90 ng/mL and 9.70 ng/mL and 9.88 ng/mL and 26.51 ng/mL and 12.01 ng/mL and 17.04 ng/mL and 15.06 ng/mL and 15.53 ng/mL and 20.33 ng/mL
[2]; 4 mg once daily 7 days, time 4.0 h, mean
  Blood Plasma Concentrations: 16.33 ng/mL
[2]; 4 mg once daily 7 days, time 6.0 h, individual subjects
  Blood Plasma Concentrations: 7.15 ng/mL and 4.71 ng/mL and 5.52 ng/mL and 10.22 ng/mL and 6.99 ng/mL and 6.78 ng/mL and 6.49 ng/mL and 6.74 ng/mL and 5.45 ng/mL
[2]; 4 mg once daily 7 days, time 6.0 h, mean
  Blood Plasma Concentrations: 6.67 ng/mL
[2]; 4 mg once daily 7 days, time 12.0 h, individual subjects
  Blood Plasma Concentrations: 2.41 ng/mL and 2.80 ng/mL and 3.23 ng/mL and 4.00 ng/mL and 2.70 ng/mL and 4.93 ng/mL and 3.50 ng/mL and 3.57 ng/mL and 1.81 ng/mL
[2]; 4 mg once daily 7 days, time 12.0 h, mean
  Blood Plasma Concentrations: 3.22 ng/mL
[2]; 4 mg once daily 7 days, time 16.0 h, individual subjects
  Blood Plasma Concentrations: 1.53 ng/mL and 2.54 ng/mL and 2.46 ng/mL and 3.12 ng/mL and 1.84 ng/mL and 3.64 ng/mL and 2.62 ng/mL and 2.87 ng/mL and 1.26 ng/mL
[2]; 4 mg once daily 7 days, time 16.0 h, mean
  Blood Plasma Concentrations: 2.43 ng/mL
[2]; 4 mg once daily 7 days, time 24.0 h, individual subjects
  Blood Plasma Concentrations: 1.04 ng/mL and 1.42 ng/mL and 1.98 ng/mL and 3.01 ng/mL and 2.04 ng/mL and 3.07 ng/mL and 1.59 ng/mL and 1.83 ng/mL and 1.09 ng/mL
[2]; 4 mg once daily 7 days, time 24.0 h, mean
  Blood Plasma Concentrations: 1.90 ng/mL
[2]; 4 mg once daily 7 days, time 48.0 h, individual subjects
  Blood Plasma Concentrations: 1.44 ng/mL and 2.05 ng/mL and 2.52 ng/mL and 4.68 ng/mL and 2.32 ng/mL and 4.43 ng/mL and 1.90 ng/mL and 1.46 ng/mL and 1.31 ng/mL
[2]; 4 mg once daily 7 days, time 48.0 h, mean
  Blood Plasma Concentrations: 2.46 ng/mL
[2]; 4 mg once daily 7 days, time 72.0 h, individual subjects
  Blood Plasma Concentrations: 1.60 ng/mL and 1.01 ng/mL and 0.90 ng/mL and 0.67 ng/mL and 1.75 ng/mL and 3.43 ng/mL and 1.99 ng/mL and 2.21 ng/mL and 1.07 ng/mL
[2]; 4 mg once daily 7 days, time 72.0 h, mean
  Blood Plasma Concentrations: 1.63 ng/mL
[2]; 4 mg once daily 7 days, time 96.0 h, individual subjects
  Blood Plasma Concentrations: 1.61 ng/mL and 0.84 ng/mL and 1.56 ng/mL and 0.91 ng/mL and 1.37 ng/mL and 2.28 ng/mL and 1.41 ng/mL and 2.65 ng/mL and 1.16 ng/mL
[2]; 4 mg once daily 7 days, time 96.0 h, mean
  Blood Plasma Concentrations: 1.53 ng/mL
[2]; 4 mg once daily 7 days, time 120.0 h, individual subjects
  Blood Plasma Concentrations: 2.12 ng/mL and 1.05 ng/mL and 1.64 ng/mL and 0.00 ng/mL and 2.73 ng/mL and 4.09 ng/mL and 2.01 ng/mL and 3.22 ng/mL and 1.78 ng/mL
[2]; 4 mg once daily 7 days, time 120.0 h, mean
  Blood Plasma Concentrations: 2.07 ng/mL
[2]; 4 mg once daily 7 days, time 144.0 h (Day 7), individual subjects
  Blood Plasma Concentrations: 1.05 ng/mL and 1.03 ng/mL and 1.84 ng/mL and 1.53 ng/mL and 0.99 ng/mL and 3.79 ng/mL and 2.12 ng/mL and 2.58 ng/mL and 0.63 ng/mL
[2]; 4 mg once daily 7 days, time 144.0 h (Day 7), mean
  Blood Plasma Concentrations: 1.73 ng/mL
[2]; 4 mg once daily 7 days, time 144.3 h, individual subjects
  Blood Plasma Concentrations: 1.04 ng/mL and 1.27 ng/mL and 2.01 ng/mL and 1.15 ng/mL and 1.28 ng/mL and 4.21 ng/mL and 2.06 ng/mL and 2.65 ng/mL and 0.57 ng/mL
[2]; 4 mg once daily 7 days, time 144.3 h, mean
  Blood Plasma Concentrations: 1.80 ng/mL
[2]; 4 mg once daily 7 days, time 144.5 h, individual subjects
  Blood Plasma Concentrations: 0.97 ng/mL and 1.74 ng/mL and 2.01 ng/mL and 2.41 ng/mL and 2.44 ng/mL and 4.55 ng/mL and 5.94 ng/mL and 4.65 ng/mL and 0.55 ng/mL
[2]; 4 mg once daily 7 days, time 144.5 h, mean
  Blood Plasma Concentrations: 2.81 ng/mL
[2]; 4 mg once daily 7 days, time 145.0 h, individual subjects
  Blood Plasma Concentrations: 4.94 ng/mL and 6.64 ng/mL and 2.82 ng/mL and 19.16 ng/mL and 8.61 ng/mL and 12.10 ng/mL and 17.17 ng/mL and 15.90 ng/mL and 0.57 ng/mL
[2]; 4 mg once daily 7 days, time 145.0 h, mean
  Blood Plasma Concentrations: 9.77 ng/mL
[2]; 4 mg once daily 7 days, time 145.5 h, individual subjects
  Blood Plasma Concentrations: 11.96 ng/mL and 18.00 ng/mL and 15.00 ng/mL and 28.69 ng/mL and 13.30 ng/mL and 26.92 ng/mL and 15.97 ng/mL and 41.93 ng/mL and 2.02 ng/mL
[2]; 4 mg once daily 7 days, time 145.5 h, mean
  Blood Plasma Concentrations: 19.31 ng/mL
[2]; 4 mg once daily 7 days, time 146.0 h, individual subjects
  Blood Plasma Concentrations: 15.50 ng/mL and 30.03 ng/mL and 69.31 ng/mL and 23.50 ng/mL and 26.51 ng/mL and 47.01 ng/mL and 18.75 ng/mL and 43.97 ng/mL and 8.78 ng/mL
[2]; 4 mg once daily 7 days, time 146.0 h, mean
  Blood Plasma Concentrations: 31.48 ng/mL
[2]; 4 mg once daily 7 days, time 147.0 h, individual subjects
  Blood Plasma Concentrations: 18.27 ng/mL and 32.65 ng/mL and 71.33 ng/mL and 12.94 ng/mL and 21.81 ng/mL and 63.28 ng/mL and 20.07 ng/mL and 21.68 ng/mL and 30.01 ng/mL
[2]; 4 mg once daily 7 days, time 147.0 h, mean
  Blood Plasma Concentrations: 32.45 ng/mL
[2]; 4 mg once daily 7 days, time 148.0 h, individual subjects
  Blood Plasma Concentrations: 15.60 ng/mL and 15.37 ng/mL and 38.58 ng/mL and 8.07 ng/mL and 11.71 ng/mL and 37.69 ng/mL and 19.03 ng/mL and 11.61 ng/mL and 18.36 ng/mL
[2]; 4 mg once daily 7 days, time 148.0 h, mean
  Blood Plasma Concentrations: 19.56 ng/mL
[2]; 4 mg once daily 7 days, time 150.0 h, individual subjects
  Blood Plasma Concentrations: 7.06 ng/ml (2×) and 6.54 ng/ml and 8.23 ng/ml and 5.23 ng/ml and 6.84 ng/ml and 14.41 ng/ml and 8.27 ng/ml and 7.33 ng/ml
[2]; 4 mg once daily 7 days, time 150.0 h, mean
  Blood Plasma Concentrations: 7.89 ng/mL
[2]; 4 mg once daily 7 days, time 152.0 h, individual subjects
  Blood Plasma Concentrations: 5.75 ng/mL and 4.22 ng/mL and 5.51 ng/mL and 4.33 ng/mL and 4.88 ng/mL and 10.17 ng/mL and 5.60 ng/mL and 7.43 ng/mL and 5.50 ng/mL
[2]; 4 mg once daily 7 days, time 152.0 h, mean
  Blood Plasma Concentrations: 5.93 ng/mL
[2]; 4 mg once daily 7 days, time 156.0 h, individual subjects
  Blood Plasma Concentrations: 3.27 ng/mL and 2.01 ng/mL and 2.60 ng/mL and 2.44 ng/mL and 2.77 ng/mL and 6.17 ng/mL and 3.11 ng/mL and 4.49 ng/mL and 2.92 ng/mL
[2]; 4 mg once daily 7 days, time 156.0 h, mean
  Blood Plasma Concentrations: 3.31 ng/mL
[2]; 4 mg vs 8 mg once daily (Table 3)
  change in Cmax and AUC on doubling of the silodosin dose: approximately two-fold increase
[2]; 8 mg once daily 7 days, Day 7, 0 h (t0), individual subjects
  Blood Plasma Concentrations: 1.90 ng/mL and 4.15 ng/mL and 3.94 ng/mL and 4.87 ng/mL and 15.77 ng/mL and 8.04 ng/mL and 1.95 ng/mL and 6.99 ng/mL and 2.40 ng/mL
